Data from patent publication US20260256963A1, “Combined Therapy with Nanoparticles and Radiopharmaceuticals” (Université de Montpellier, priority 2022, published 2026).

Experiments:
[1] = test system: SK-OV-3-luc tumor cell xenografts; test: Kaplan-Meier survival of mice bearing intraperitoneal SK-OV-3-luc xenografts; format: in vivo; details: from xenograft date to bioluminescence of 4×10^10 photons/s; 5 MBq and/or AGuiX® 2×5 mg per day at 24 h and 72 h
[2] = IP injection, radioactivity in the tumor
[3] = Maximum tolerated activity in nude mice; format: in vivo

^177Lu-Trastuzumab: Trastuzumab (Herceptin, Roche) conjugated with p-SCN-benzyl-DOTA, labeled with ^177Lu at specific activity 200 MBq/mg
Median survival [1]: 69 days | Incorporation of the radiolabeled antibody in the tumor over time [2]: increases between 0 and 48 h and then decreases | Maximum Tolerated Activity (MTA) [3]: 10 MBq
